Results reported in ChEMBL document CHEMBL1681785, “Structure-activity relationships of flavonoids as inhibitors of breast cancer resistance protein (BCRP)” (Bioorg Med Chem, 2011).

By UniProt entry, the sequences of proteins in these tests, tags left out. Where a name states a change or a piece, a line headed by the entry shows the natural chain unless it says otherwise.
UniProt Q9UNQ0: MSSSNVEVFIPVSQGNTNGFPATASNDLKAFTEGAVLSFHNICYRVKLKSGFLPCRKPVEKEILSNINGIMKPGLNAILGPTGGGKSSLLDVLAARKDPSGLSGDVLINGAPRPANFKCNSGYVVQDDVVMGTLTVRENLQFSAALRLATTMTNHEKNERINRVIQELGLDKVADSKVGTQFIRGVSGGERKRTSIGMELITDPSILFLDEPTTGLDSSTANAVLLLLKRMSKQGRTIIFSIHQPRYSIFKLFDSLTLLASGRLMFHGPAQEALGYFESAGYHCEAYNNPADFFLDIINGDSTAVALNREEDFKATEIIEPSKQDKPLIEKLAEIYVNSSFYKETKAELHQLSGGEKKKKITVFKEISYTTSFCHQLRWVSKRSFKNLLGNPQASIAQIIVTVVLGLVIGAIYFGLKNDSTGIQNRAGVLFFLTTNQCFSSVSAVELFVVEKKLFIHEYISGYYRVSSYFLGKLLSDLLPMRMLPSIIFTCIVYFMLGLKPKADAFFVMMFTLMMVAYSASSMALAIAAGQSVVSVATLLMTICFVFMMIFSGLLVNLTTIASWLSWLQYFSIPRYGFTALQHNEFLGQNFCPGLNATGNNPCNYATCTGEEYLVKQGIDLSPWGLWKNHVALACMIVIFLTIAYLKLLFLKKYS

Target: Broad substrate specificity ATP-binding cassette transporter ABCG2 (Homo sapiens, UniProt Q9UNQ0)
Assay: Inhibition of BCRP expressed in MCF-7 MX cells using Hoechst 33342 staining
Assay type: cell-based, MCF7

Structure (SMILES): O=c1cc(-c2ccccc2)oc2cc(O)cc(O)c12 [CHRYSIN]
- IC50: 2600 nM
